From PubChem BioAssay AID588621 (Sanford-Burnham Center for Chemical Genomics, 2011) come the findings set out here.

Amino acid sequences for entries named in this document (tags omitted).
UniProt P54829, whole entry: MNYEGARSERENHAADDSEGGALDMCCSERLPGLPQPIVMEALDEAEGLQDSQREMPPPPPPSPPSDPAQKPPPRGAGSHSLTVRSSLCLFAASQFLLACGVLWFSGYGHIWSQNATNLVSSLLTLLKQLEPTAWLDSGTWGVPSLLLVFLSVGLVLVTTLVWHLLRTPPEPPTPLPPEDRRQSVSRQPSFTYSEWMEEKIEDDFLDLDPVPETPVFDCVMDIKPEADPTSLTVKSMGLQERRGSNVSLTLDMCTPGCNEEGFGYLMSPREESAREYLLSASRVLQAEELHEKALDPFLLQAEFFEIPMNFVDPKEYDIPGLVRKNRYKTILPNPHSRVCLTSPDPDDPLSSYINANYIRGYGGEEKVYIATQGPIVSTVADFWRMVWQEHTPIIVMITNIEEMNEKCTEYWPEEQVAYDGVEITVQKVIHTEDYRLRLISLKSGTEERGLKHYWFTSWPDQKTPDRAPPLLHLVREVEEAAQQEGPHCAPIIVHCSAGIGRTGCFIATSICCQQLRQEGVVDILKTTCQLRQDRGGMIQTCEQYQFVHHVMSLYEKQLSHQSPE

This is a selection; strong and weak results do not stand in their true shares. The source made the active and inactive calls.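 The calls were made as follows: active = inhibition at 20 µM, scaled per plate between control wells, above about 37% (limit read from the data); inactive = the rest.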

For this assay, the target named is Tyrosine-protein phosphatase non-receptor type 5 (Homo sapiens) (UniProt P54829). In words: inhibition of human PTPN5 enzyme activity – biochemical, fluorescence intensity, uHTS, primary screen (AID 588621).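 Also: 0% = DMSO with enzyme and substrate and 100% = substrate only without enzyme.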 To be noted: recombinant STEP, OMFP fluorogenic substrate, at 20 µM, active compounds read high. The method, boiled down:
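material = STEP tyrosine phosphatase | reagent = fluorogenic phosphatase substrate OMFP at 25 µM final | doses = single compound dose of 20 µM, 1% DMSO final | schedule = 20 min reaction, room temperature, in the dark | measured by = fluorescence, 480/540 nm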
`COc1ccccc1OP(C)(=O)Nc1ccccc1` (stereo not drawn): the inhibition (in general, the drop in the measured response relative to a control, in per cent) was inactive: -0.5%.

As to `CP(=O)(Nc1ccccc1Br)Oc1ccccc1` (stereo not drawn), the inhibition was inactive: -0.1%. To `CP(=S)(Nn1cnnc1)Oc1ccccc1` (stereo not drawn) belongs inactive: -0.9%. To `CP(=O)(Nc1ccccn1)Oc1ccc(Cl)cc1` (stereo not drawn) belongs inactive: 0.2%; to `CCOP(C)(=S)SCC(=O)NC(C)C(=O)O` (stereo not drawn), inactive: -1.6%; to `O=[N+]([O-])c1cc([N+](=O)[O-])c(O)c([N+](=O)[O-])c1.c1ccc(Oc2ccncc2)cc1`, inactive: -0.7%. In the case of `CCOC(=O)c1ccc(NP(C)(=O)Oc2ccc(OC)cc2)cc1` (stereo not drawn) it was inactive: 0.3%.

As to `CP(=O)(NC(=O)Nc1ccccc1)Oc1ccccc1` (stereo not drawn), the inhibition is inactive: -1.7%. In the case of `CCc1ccc(OP(C)(=O)N2CCN(c3ccc([N+](=O)[O-])cc3)CC2)cc1` (stereo not drawn) it was inactive: 2.2%; in that of `Cc1cc(C)cc(OP(C)(=O)Nc2ccc(SC(F)(F)F)cc2)c1` (stereo not drawn), inactive: -1.8%.

On to `CP(=O)(Nc1ccc(SC(F)(F)F)cc1)Oc1ccc(Cl)cc1` (stereo not drawn), for which the inhibition is inactive: -1.2%. Regarding `Cc1ccc(Nc2c([N+](=O)[O-])cc([N+](=O)[O-])cc2[N+](=O)[O-])cc1`, the inhibition is inactive: 1%.

As for `Cc1cccc(C)c1OP(C)(=O)Nc1ccc(SC(F)(F)F)cc1` (stereo not drawn), the inhibition is inactive: 0.5%.

As to `CP(=O)(Oc1ccccc1)OC(c1ccccc1)C(F)(F)F` (stereo not drawn), the inhibition was inactive: 7.4%. In the case of `Cc1nc2ccc3ccccc3c2s1.O=[N+]([O-])c1cc([N+](=O)[O-])c(O)c([N+](=O)[O-])c1` it was inactive: 2.8%. In the case of `O=[N+]([O-])c1cc([N+](=O)[O-])c(-c2cnn(-c3ccccc3)c2)c([N+](=O)[O-])c1` it was inactive: 3.5%; in that of `CN(Cc1cccnc1)C(=O)COc1ccc(Cl)c(Cl)c1.O=[N+]([O-])c1cc([N+](=O)[O-])c(O)c([N+](=O)[O-])c1`, inactive: 1.2%.

Turning to `O=[N+]([O-])c1cc([N+](=O)[O-])c(-n2nnc3ccccc32)c([N+](=O)[O-])c1`, the inhibition was inactive: -2.1%. On to `CCCOc1ccc(NP(C)(=O)Oc2ccc(Cl)cc2)cc1` (stereo not drawn), for which the inhibition was inactive: -1.2%. To `CP(=O)(Nc1ccc(SC(F)(F)F)cc1)Oc1ccccc1` (stereo not drawn) belongs inactive: -2.6%; to `CN1CCCCC1COC(=O)C1(O)c2ccccc2CCc2ccccc21` (stereo not drawn), inactive: 1.7%; to `COc1ccccc1OP(C)(=O)Nc1c(C)cccc1C` (stereo not drawn), inactive: -1.1%.

As to `CC1=C2N=C(C=C3N=C(C(C)=C4[N-][C@@](C)([C@@H]5N=C1[C@](C)(CCC(=O)NC[C@@H](C)OP(=O)([O-])O[C@H]1[C@@H](O)[C@@H](n6cnc7cc(C)c(C)cc76)O[C@@H]1CO)[C@H]5CC(N)=O)[C@@](C)(CC(N)=O)[C@@H]4CCC(N)=O)[C@@](C)(CC(N)=O)[C@@H]3CCC(N)=O)C(C)(C)[C@@H]2CCC(N)=O.[C-]#N.[Co+3]`, the inhibition was inactive: 7.1%. In the case of `O=[N+]([O-])c1cc([N+](=O)[O-])c(Nc2nnnn2CCO)c([N+](=O)[O-])c1` it was inactive: -0.7%; in that of `CCOC(=O)C(CC)C1=NC(C)(C)Cc2ccccc21.O=[N+]([O-])c1cc([N+](=O)[O-])c(O)c([N+](=O)[O-])c1` (stereo not drawn), inactive: 0%. In the case of `CC1=NCCc2c1[nH]c1ccccc21.O=[N+]([O-])c1cc([N+](=O)[O-])c(O)c([N+](=O)[O-])c1` it was inactive: -1.9%; in that of `O=C(O)c1cccc(Nc2c([N+](=O)[O-])cc([N+](=O)[O-])cc2[N+](=O)[O-])c1`, inactive: 3.9%.

As to `Cc1cc(C)cc(OP(C)(=O)Nc2ccccn2)c1` (stereo not drawn), the inhibition was inactive: -2.5%. In the case of `CP(=O)(Nc1cccc(Br)c1)Oc1ccccc1` (stereo not drawn) it was inactive: -2%; in that of `Cc1ccc(C)c(NP(C)(=O)Oc2ccccc2)c1` (stereo not drawn), inactive: -4.5%.

As to `Cc1cc(C)cc(OP(C)(=O)Nc2ccc(C)cc2C)c1` (stereo not drawn), the inhibition is inactive: 0.3%. To `CCOC(=O)c1ccc(NP(C)(=O)Oc2cc(C)cc(C)c2)cc1` (stereo not drawn) belongs inactive: -1.1%; to `COc1ccccc1OP(C)(=O)Nc1cccc(Br)c1` (stereo not drawn), inactive: -1.1%.
